Literature values as cited in publication PMC3152616 (Peptides, 2011).
Read-outs that look alike come from different tables or passages of the source.

Molecular target: T1, BRS-3 (Homo sapiens, UniProt P32247)
T1 sequence (P32247 1-399): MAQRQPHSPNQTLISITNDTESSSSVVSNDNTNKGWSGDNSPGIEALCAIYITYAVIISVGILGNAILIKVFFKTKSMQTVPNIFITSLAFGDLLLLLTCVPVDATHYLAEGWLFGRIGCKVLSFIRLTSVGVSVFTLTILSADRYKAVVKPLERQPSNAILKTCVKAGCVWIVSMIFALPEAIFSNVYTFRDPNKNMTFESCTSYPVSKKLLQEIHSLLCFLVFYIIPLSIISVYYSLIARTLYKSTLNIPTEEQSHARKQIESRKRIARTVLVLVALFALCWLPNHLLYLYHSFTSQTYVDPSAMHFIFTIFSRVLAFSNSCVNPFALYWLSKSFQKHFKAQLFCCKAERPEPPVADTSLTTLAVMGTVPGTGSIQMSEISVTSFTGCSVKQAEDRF
Settings: read-out: IC50, BRS-3, cited from earlier work

For “Ac-Phe-Trp-Ala-His(γBzl)-Nip-Gly-Arg-NH2”, the IC50 (ref 2, 28) is listed as 1300 nM and the IC50 (ref 26, 27) is listed as 80 nM.
